Experimental findings from PubChem BioAssay AID847 (SRMLSC, 2007) are described below.

The entries are a selection whose mix differs from that of the whole data set. The source made the active and inactive calls.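 Rule for the calls: active = viability at or below the median of all test compounds minus 3 SD, in both replicates if run twice (cut at about 45% in these data); inconclusive = duplicate replicates that disagree with each other; inactive = viability above that cutoff in every replicate.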

The assay is described as follows: SK-BR-3 proliferation inhibitors, primary screen, cell-based, human, 24 h (AID 847).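 Note: 100% = median untreated cell wells and 0% = median positive control drug.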 The note with it: SK-BR-3 viability, CellTiter-Glo ATP luminescence, at 10 µM, stronger effect = lower value. On the technique in general: ATP-based viability assays read luminescence as a measure of living cells.
Turning to `O=C(OC1CN2CCC1CC2)C1c2ccccc2Oc2ccccc21` (stereo not given), the viability was inactive: 88.5%.

Turning to `N#CC1(Nc2ccccc2)CCN(CCc2ccccc2)CC1`, the viability is inactive: 86.3%.

`N/C(=N\O)c1c(N)no[n+]1[O-]`: the viability was inactive: 87.7%.

Consider `CCC(CO)(C(=O)OC1CN2CCC1CC2)c1ccccc1` (stereo not given), for which the viability is inactive: 85.7%.

As for `Fc1ccccc1NC1CCN(Cc2ccccc2)CC1`, the viability is inactive: 76.6%.

What is called viability is a per cent measure of how many cells are alive, often set against a control.
